## Binding of CDR-mutated scFvs to a peptide of the spike HR2 region

Target: peptide PDVDLGDISGINAS, taken from heptad repeat 2 (HR2) of SARS-CoV-2 spike.

Each scFv is VH, three GGGGS repeats, VL, as in the parent Ab-14, and differs from it in the CDRs of the light chain only.
VH: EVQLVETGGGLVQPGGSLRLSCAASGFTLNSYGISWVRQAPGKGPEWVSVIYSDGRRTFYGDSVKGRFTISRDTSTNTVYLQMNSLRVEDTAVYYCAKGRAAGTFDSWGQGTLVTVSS
VL: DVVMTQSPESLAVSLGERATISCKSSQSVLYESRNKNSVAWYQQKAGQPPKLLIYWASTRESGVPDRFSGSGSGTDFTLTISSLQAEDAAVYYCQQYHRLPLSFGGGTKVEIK

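Phage display of a naive human antibody library on the peptide gave the parent. Variants in AAYL50 differ from the parent at up to three CDR positions; double and triple changes were sampled at random. Affinity was read by AlphaSeq, a pooled yeast mating assay with surface-displayed partners. Binding brings cells together so that they mate, and sequencing counts the barcode pairs among the diploids. Each replicate has its own calibration line, from reference interactions of the BCL2 family. Each pool was mated in three replicate cultures.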

Positions count from residue 1 of the parent VL; S25Q puts Q in place of S. Numbers give log10(Kd / nM), so 0 is 1 nM and 3 is 1 µM. Smaller is tighter. A pair that was not seen in that replicate is written "n.d."; this usually means weak binding, but a binder can also be missed. Three control strains display no target. For library AAYL50, 18% of the pairings with them gave a signal, with a median of 4.19 and one signal in twenty below 2.99, so weak values seen in few replicates may be background. Also given: how often the same scFv was detected with the empty control strains, with their mean in brackets.

{"changes": "S25Q S33K E61D", "replicates, log10 nM": "1.85 1.70 2.53", "empty controls": "3/9 (4.09)"}
{"changes": "S28F S33K A40Q", "replicates, log10 nM": "n.d. n.d. n.d.", "empty controls": "0/9"}
{"changes": "S26V A57R R99Y", "replicates, log10 nM": "n.d. n.d. 3.48", "empty controls": "3/9 (4.75)"}
{"changes": "Y31M S62M H98C", "replicates, log10 nM": "2.55 1.81 2.30", "empty controls": "1/9 (4.33)"}
{"changes": "Y31N R60Y R99L", "replicates, log10 nM": "1.31 n.d. 2.03", "empty controls": "0/9"}
{"changes": "A40Y W56L R60P", "replicates, log10 nM": "3.47 n.d. 4.25", "empty controls": "1/9 (4.77)"}
{"changes": "S26M E61Q Q96C", "replicates, log10 nM": "n.d. n.d. n.d.", "empty controls": "1/9 (4.14)"}
{"changes": "S28C E61H", "replicates, log10 nM": "4.34 2.81 3.40", "empty controls": "1/9 (4.22)"}
{"changes": "S26Y V29G E61H", "replicates, log10 nM": "1.75 1.66 1.78", "empty controls": "4/9 (4.30)"}
{"changes": "Q95N Q96H R99V", "replicates, log10 nM": "n.d. n.d. n.d.", "empty controls": "4/9 (4.10)"}
{"changes": "Y31V R34Y S58W", "replicates, log10 nM": "2.01 1.92 1.34", "empty controls": "1/9 (3.78)"}
{"changes": "S25Y S28Q N37Q", "replicates, log10 nM": "0.96 0.98 1.07", "empty controls": "0/9"}
{"changes": "R34Y A57Q L102F", "replicates, log10 nM": "1.48 1.30 1.75", "empty controls": "0/9"}
{"changes": "S25K S58Q R99W", "replicates, log10 nM": "3.50 2.59 3.90", "empty controls": "2/9 (3.45)"}
{"changes": "V29A A40L L102M", "replicates, log10 nM": "n.d. n.d. 4.90", "empty controls": "6/9 (4.05)"}
{"changes": "L100K", "replicates, log10 nM": "0.99 1.09 0.82", "empty controls": "1/9 (2.25)"}
{"changes": "S25E A40V", "replicates, log10 nM": "n.d. n.d. n.d.", "empty controls": "0/9"}
{"changes": "A57M L100E S103D", "replicates, log10 nM": "n.d. n.d. 3.48", "empty controls": "0/9"}
{"changes": "N35Y S38R T59F", "replicates, log10 nM": "n.d. n.d. n.d.", "empty controls": "0/9"}
{"changes": "R34S A40N W56F", "replicates, log10 nM": "4.33 n.d. 3.84", "empty controls": "2/9 (4.98)"}
{"changes": "S26M Q95L", "replicates, log10 nM": "n.d. n.d. n.d.", "empty controls": "0/9"}
{"changes": "S28Y S58T Y97Q", "replicates, log10 nM": "n.d. n.d. n.d.", "empty controls": "2/9 (3.83)"}
{"changes": "V29P R34S P101F", "replicates, log10 nM": "n.d. n.d. n.d.", "empty controls": "0/9"}
{"changes": "K36G W56T R60M", "replicates, log10 nM": "n.d. n.d. 2.85", "empty controls": "1/9 (4.88)"}
{"changes": "K24G S33W P101T", "replicates, log10 nM": "3.79 4.39 n.d.", "empty controls": "1/9 (3.86)"}

The last 3 entries again:

| changes | replicates, log10 nM | empty controls |
|---|---|---|
| V29P R34S P101F | n.d. n.d. n.d. | 0/9 |
| K36G W56T R60M | n.d. n.d. 2.85 | 1/9 (4.88) |
| K24G S33W P101T | 3.79 4.39 n.d. | 1/9 (3.86) |

Parent in this assay: reference entry 0.65, copy in this library 1.68.

From the AlphaSeq antibody data of Engelhart et al. 2022 (doi:10.1038/s41597-022-01779-4), copy in the FLAb collection.